{"source": "patent US8067155B2", "about": "“Receptor tyrosine kinase assays” (DiscoveRx Corporation, priority 2008, dated 2011)", "target": "T1, IGF1R (Homo sapiens, UniProt P08069)", "T1 construct": "host or cells: U2OS", "assay": "PathHunter IGF1R-PK / SH2-containing protein-EA assay in U2OS cells, agonist mode", "format": "cell-based", "details": "3 hours at room temperature", "data": [{"substance": "IGF1: IGF1 (Peprotech, Cat AF-100-11), a known ligand for IGF1R", "values": [{"measurement": "assay window", "value": 4.4, "unit": "fold"}]}]}
